{
  "source": "PubChem BioAssay AID1825",
  "about": "(The Scripps Research Institute Molecular Screening Center, 2009)",
  "note": "The list shows a part of the results, in another mix than the full data. Activity calls are given as the source filed them. Cut-off read from the data, not from the text of the source: active = inhibition above about 22%; inactive = the rest.",
  "data": [
    {"experiment": "IEC-6 cell viability reduction – luminescence, cytotoxicity control for KLF5 inhibitor project, primary screen (AID 1825);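 note: 0% = plate median of test compound wells and 100% = cytotoxic reference compound wells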", "conditions": "IEC-6 cytotoxicity, at 5 µM, active compounds read high", "values": [
      {"smiles": "Cc1ccc(OP(=O)(Nc2ccccn2)Oc2ccc(C)cc2)cc1", "inhibition": "inactive: -2.8%"}
    ]}
  ]
}
